Reference: ChEMBL document CHEMBL6182939, “Searching for Synthetic Opioid Rescue Agents. 2: Identification of an Ultra-Potent Synthetic Opioid Rescue Agent” (J Med Chem, 2025)

Chains of the proteins cited; added tags and fusions are not shown.
UniProt P11712, whole entry: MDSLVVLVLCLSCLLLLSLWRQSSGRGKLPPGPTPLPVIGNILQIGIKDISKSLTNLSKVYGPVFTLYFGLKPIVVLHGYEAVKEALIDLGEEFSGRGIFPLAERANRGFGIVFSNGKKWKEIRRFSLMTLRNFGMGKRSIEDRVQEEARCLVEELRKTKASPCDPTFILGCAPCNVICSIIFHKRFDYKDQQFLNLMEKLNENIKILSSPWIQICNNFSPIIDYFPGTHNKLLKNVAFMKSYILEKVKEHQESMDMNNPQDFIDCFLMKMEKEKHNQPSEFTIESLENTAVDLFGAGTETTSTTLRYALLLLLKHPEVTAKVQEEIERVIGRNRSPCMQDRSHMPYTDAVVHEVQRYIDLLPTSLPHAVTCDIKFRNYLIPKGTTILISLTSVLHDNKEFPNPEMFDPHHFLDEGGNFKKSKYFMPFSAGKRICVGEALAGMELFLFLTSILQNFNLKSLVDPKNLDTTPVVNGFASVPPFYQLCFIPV
UniProt P10635, whole entry: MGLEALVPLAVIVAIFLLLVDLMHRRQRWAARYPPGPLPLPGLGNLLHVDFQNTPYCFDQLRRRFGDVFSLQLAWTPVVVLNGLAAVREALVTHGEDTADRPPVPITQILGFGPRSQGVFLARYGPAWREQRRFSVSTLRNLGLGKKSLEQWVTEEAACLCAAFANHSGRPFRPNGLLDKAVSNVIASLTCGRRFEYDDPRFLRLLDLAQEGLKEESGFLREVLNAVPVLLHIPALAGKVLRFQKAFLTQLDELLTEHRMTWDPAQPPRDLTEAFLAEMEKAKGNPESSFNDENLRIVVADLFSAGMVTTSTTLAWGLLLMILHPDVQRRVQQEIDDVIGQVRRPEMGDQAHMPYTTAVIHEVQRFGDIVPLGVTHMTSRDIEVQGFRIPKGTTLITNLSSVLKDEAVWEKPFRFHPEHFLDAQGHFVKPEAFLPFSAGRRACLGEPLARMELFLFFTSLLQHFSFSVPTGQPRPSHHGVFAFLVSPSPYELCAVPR
UniProt P08684, whole entry: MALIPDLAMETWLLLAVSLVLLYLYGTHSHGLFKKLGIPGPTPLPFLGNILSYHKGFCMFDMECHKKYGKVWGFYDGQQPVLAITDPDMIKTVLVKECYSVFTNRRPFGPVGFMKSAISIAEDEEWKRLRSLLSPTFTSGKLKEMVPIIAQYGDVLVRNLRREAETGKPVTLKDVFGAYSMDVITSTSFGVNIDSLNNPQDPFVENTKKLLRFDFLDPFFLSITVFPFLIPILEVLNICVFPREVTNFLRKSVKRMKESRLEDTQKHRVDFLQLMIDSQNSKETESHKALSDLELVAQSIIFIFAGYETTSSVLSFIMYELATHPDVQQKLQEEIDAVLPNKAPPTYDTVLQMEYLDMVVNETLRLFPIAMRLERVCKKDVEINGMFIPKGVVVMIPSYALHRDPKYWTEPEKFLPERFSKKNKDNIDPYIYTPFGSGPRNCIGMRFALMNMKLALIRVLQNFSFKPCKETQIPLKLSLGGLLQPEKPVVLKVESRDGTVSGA
UniProt P05177, whole entry: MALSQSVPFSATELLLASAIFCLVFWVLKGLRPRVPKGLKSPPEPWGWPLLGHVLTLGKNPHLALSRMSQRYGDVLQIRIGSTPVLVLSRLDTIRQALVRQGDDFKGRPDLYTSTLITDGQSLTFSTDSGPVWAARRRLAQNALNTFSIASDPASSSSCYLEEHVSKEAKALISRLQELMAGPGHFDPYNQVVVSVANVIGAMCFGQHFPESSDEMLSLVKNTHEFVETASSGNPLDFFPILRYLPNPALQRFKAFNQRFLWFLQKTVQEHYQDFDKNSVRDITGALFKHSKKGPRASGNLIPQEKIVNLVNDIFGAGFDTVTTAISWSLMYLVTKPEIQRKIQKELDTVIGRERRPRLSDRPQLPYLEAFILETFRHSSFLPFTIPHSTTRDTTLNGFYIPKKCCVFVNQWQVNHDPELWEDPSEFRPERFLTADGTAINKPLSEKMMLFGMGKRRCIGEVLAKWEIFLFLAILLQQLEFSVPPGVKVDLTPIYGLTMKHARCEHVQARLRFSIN
UniProt P33261, whole entry: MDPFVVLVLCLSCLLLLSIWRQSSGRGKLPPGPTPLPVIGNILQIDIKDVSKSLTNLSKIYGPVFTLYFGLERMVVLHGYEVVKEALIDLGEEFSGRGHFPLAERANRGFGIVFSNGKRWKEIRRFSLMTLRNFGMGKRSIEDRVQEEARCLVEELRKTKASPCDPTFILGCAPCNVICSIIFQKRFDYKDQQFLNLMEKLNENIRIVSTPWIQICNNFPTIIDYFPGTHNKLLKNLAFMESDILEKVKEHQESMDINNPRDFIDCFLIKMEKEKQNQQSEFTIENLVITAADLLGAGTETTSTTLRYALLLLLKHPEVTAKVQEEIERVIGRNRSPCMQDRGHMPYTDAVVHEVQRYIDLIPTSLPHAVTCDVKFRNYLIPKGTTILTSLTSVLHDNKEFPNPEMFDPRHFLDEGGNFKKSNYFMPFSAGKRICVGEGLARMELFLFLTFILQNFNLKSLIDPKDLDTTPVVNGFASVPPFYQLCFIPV

Tests used:
Type in all cases: ADME, Microsome
Cytochrome P450 2C9 = Cytochrome P450 2C9 (Homo sapiens, UniProt P11712); assay: Inhibition of CYP2C9 in human liver microsomes at 10 uM relative to control
Cytochrome P450 2D6 = Cytochrome P450 2D6 (Homo sapiens, UniProt P10635); assay: Inhibition of CYP2D6 in human liver microsomes at 10 uM relative to control
Cytochrome P450 3A4 = Cytochrome P450 3A4 (Homo sapiens, UniProt P08684); assay: Inhibition of CYP3A4 in human liver microsomes at 10 uM relative to control
Cytochrome P450 1A2 = Cytochrome P450 1A2 (Homo sapiens, UniProt P05177); assay: Inhibition of CYP1A2 in human liver microsomes at 10 uM relative to control
[1] = Metabolic stability in mouse liver microsomes assessed as half life
[2] = Metabolic stability in human liver microsomes assessed as half life
Cytochrome P450 2C19 = Cytochrome P450 2C19 (Homo sapiens, UniProt P33261); assay: Inhibition of CYP2C19 in human liver microsomes at 10 uM relative to control

COc1cc(CNCCC2CCCCC2)ccc1Oc1ccc(C(N)=O)cn1
inhibition (INH) (Cytochrome P450 2C9): 4.9%
inhibition (INH) (Cytochrome P450 2D6): 46.4%
inhibition (INH) (Cytochrome P450 3A4): 0%
inhibition (INH) (Cytochrome P450 1A2): 0%
t1/2 [1]: 8.3 min
t1/2 [2]: > 2.42 h
inhibition (INH) (Cytochrome P450 2C19): 40.8%
